G9a block – G9a (human) methyltransferase inhibition | Q96KQ7 | G9a H3K9 monomethylation, AlphaScreen, 2 h | Potency, µM (top dose mostly 102 µM), usual class: inhibitors | hit rate 8.8% among 350,000 | AID 504332; further: nearly all actives have a fitted effect of over 75% in size
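Step 1: enzyme (final 20 nM) with compound, 15 min RT. Step 2: substrate peptide 500 nM and SAM 20 uM, 2 h RT. Step 3: anti-H3K9me1 antibody and AlphaScreen beads, 10 min, then plate read.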
JMJD2E inh – inhibitors of human JMJD2E histone demethylase; B2RXH2; JMJD2E catalytic domain, FDH-coupled NADH fluorescence (FDH is formaldehyde dehydrogenase); Potency, µM (series often up to 57.1 µM), actives largely listed as inhibitors; hit rate 1.6% among 230,000; AID 2147; active means well fitted inhibition curve with a large enough effect, not every such curve was filed as active; inconclusive means small, poorly fitted or top-dose-only effect, or another doubt; inactive means no such curve, though single readings can be large or run the other way; further: nearly all actives have a fitted effect of over 50% in size
ALDH1A1 block – inhibitors of human aldehyde dehydrogenase 1A1 | P00352 | Purified ALDH1A1, NADH fluorescence, propionaldehyde substrate | Potency, µM (top dose mostly 75.3 µM), most hits filed as inhibitors | hit rate 7.3% among 220,000 | AID 1030; active means well fitted inhibition curve with a large enough effect, not every such curve was filed as active; inconclusive means small, poorly fitted or top-dose-only effect, or another doubt; inactive means no such curve, though single readings can be large or run the other way
Sfp PPTase inh – Sfp phosphopantetheinyl transferase inhibition; Potency, µM, hits mostly inhibitors; hit rate 3.5% among 310,000; AID 1490; Q9F4F7; Biochemical Sfp PPTase activity, qHTS;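 further: the enzyme is Sfp with the accession as filed and its product quenches rhodamine fluorescence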
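Step 1, compound plus 15 nM Sfp-PPTase, 15 min, room temperature. Step 2, add rhodamine-CoA (5 uM) and BHQ-2-YbbR (12.5 uM). Step 3, read 525/598 nm fluorescence at 0 and 30 min.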
LMNA splice mod – modulators of lamin A splicing | hit rate 0.01% among 200,000 | HeLa LMNA splicing GFP/RFP minigene ratio, 48 h | AID 1487 | Potency, µM (highest dose often 46.1 µM), actives largely listed as inhibitors; active means well fitted inhibition curve with a large enough effect in the signal ratio, with a control signal flat, not every such curve was filed as active; inconclusive means small, poorly fitted or top-dose-only effect, or effect the other way, or a change in a side signal; the % refers to the signal ratio
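Read-out is the ratio of GFP to DsRed2 object intensity, acquired by 488 nm laser-scanning cytometry on HeLa lamin A-EGFP minigene reporter cells. Compound incubation 48 hrs at 37 °C in Opti-MEM with 2% FBS; DMSO 0.5% final.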
miR-21 reporter – raises the signal of a miR-21 reporter; HeLa miR-21 FLuc reporter, luciferase, 48 h; Potency, µM (series often up to 38.3 µM); 340,000 tested, under 10 active; active = well fitted rising curve with a large enough effect; inconclusive = small, poorly fitted or top-dose-only effect; inactive = no such curve, though single readings can be large or run the other way;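 also: miR-21 action dims this reporter so a rising signal means less miR-21 action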
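Using DMEM plus 10% FBS, HeLa miR-21-FLuc cells are incubated with test compounds (final up to about 40uM) for 48 hours; firefly luciferase signal is then imaged following reagent-mediated lysis.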
Numbers stand for hits; . = inactive; ? = inconclusive; / = no result given; [ ] = dose if it differs, or a comment. Rows were chosen to be rich in hits. Some 13% of all compounds tested hit in one or more screens of this group. Unless noted, the call rests on the fitted dose curve; in most records, active means well fitted curve in the direction sought with a large enough effect; inconclusive means small, poorly fitted or top-dose-only effect, or another doubt; inactive means no such curve, though single readings can be large; an effect the other way counts as inactive or inconclusive.

SMILES	G9a block	JMJD2E inh	ALDH1A1 block	Sfp PPTase inh	LMNA splice mod	miR-21 reporter
Cc1ccc(Cl)cc1NC(=O)Cn1c(=O)c(CNc2ccccc2)cc2cc3c(cc21)OCCO3	7.94µM	/	/	/	/	.
CSc1nn(Cc2ccc(C)cc2)c(N)c1S(=O)(=O)c1ccccc1	.	/	/	/	/	.
O=C(NCCOc1nc(N2CCCCC2)nc(N2CCOCC2)n1)Nc1ccccc1	.	.	8.91µM	.	.	.
Clc1ccccc1-c1nnn(Cc2ccc(-c3nn[nH]n3)cc2)n1	.	.	15.8µM	.	.	.
Cc1ccc(OCCn2c(-c3ccc(Cl)cc3)nc3ccccc3c2=O)c(C)c1	?	/	/	/	/	.
Cc1ccc(C(=O)Nc2ccccc2Cl)cc1	.[0.501 µM]	/	/	.	/	.
CCN1/C(=C/c2cc[n+](CCCS(=O)(=O)[O-])c3ccccc23)Sc2ccccc21	25.1µM	.	?	.	?	.
Cc1ccc(S(=O)(=O)NCC(=O)NCC(=O)OCc2c(F)cccc2Cl)cc1	8.91µM	.	?	?	/	.
C=C1CCN(C(C(=O)OC)C(C)C)S(=O)(=O)c2ccccc21 (stereo unspecified)	.[12.7 µM]	.	/	.	/	.
Cc1ccc(CNC(=O)c2cnc(N(C)C)nc2)cc1	.	/	/	/	.	.
CC1=C(C(N)=O)C(c2cccs2)NC(=S)N1 (stereo unspecified)	/	.	?	.	/	.
CC1=C(C(=O)OC(C)C)C(c2cccs2)NC(=S)N1 (stereo unspecified)	.	.	3.16µM	.	.	.
CC1=C(C(=O)Nc2ccc(F)c(F)c2)C(c2cccs2)NC(=S)N1 (stereo unspecified)	.	.	0.631µM	.	.	.
O=C(O)c1ccc(N2CCCS2(=O)=O)cc1	.	/	/	.	/	.
O=C(O)c1ccc(S(=O)(=O)c2ccc([N+](=O)[O-])cc2[N+](=O)[O-])cc1	25.1µM	/	/	79.4µM	/	.
O=C(O)c1ccc(S(=O)(=O)c2ccccc2C(=O)O)c([N+](=O)[O-])c1	?	/	/	.	/	.
CC(=O)c1cc(F)c(N2CCN(C(=O)C(C)(C)C)CC2)cc1C	.	.	15.8µM	.	.	.
O=c1[nH]cnc2c1ncn2C1CC(O)C(CO)O1 (stereo unspecified)	/	.	.	.	.	/
CCCCCCCCCCCCC/C=C\[C@@H](O)[C@H](CO)NC(C)=O	/	.	.	.	/	/
CCc1ccc(C2=NN(S(C)(=O)=O)C(c3cccs3)C2)cc1 (stereo unspecified)	.	.	20µM	.	?	.
CCS(=O)(=O)Nc1cccc(C2=NN(S(=O)(=O)c3ccc(C)cc3)C(c3cccs3)C2)c1 (stereo unspecified)	.	.	5.01µM	.	?	.
CCS(=O)(=O)Nc1cccc(C2=NN(S(=O)(=O)c3ccccc3)C(c3cccs3)C2)c1 (stereo unspecified)	.[0.501 µM]	.	?	.	.[0.0737 µM]	.
CCS(=O)(=O)Nc1ccc(C2=NN(C(=O)c3ccccc3)C(c3cccs3)C2)cc1 (stereo unspecified)	28.2µM	/	/	.	/	.
Cc1c(C(=O)N2CCC(c3nc4ccccc4s3)CC2)oc2ccc(Cl)cc12	.	/	/	/	.	.
COC(=O)c1c(C)[nH]c(/C=N/Nc2ccccc2)c1C	25.1µM	.	/	.	/	.
SMILES	G9a block	JMJD2E inh	ALDH1A1 block	Sfp PPTase inh	LMNA splice mod	miR-21 reporter
COc1ccc(C(=O)OCC(=O)Nc2ccc3[nH]c(=O)[nH]c3c2)cc1	.[0.501 µM]	/	/	/	/	/
CC1(NC(=O)Nc2cc([N+](=O)[O-])ccc2O)CCS(=O)(=O)C1 (stereo unspecified)	.[2.33 µM]	/	/	/	/	/
COc1ccc(-c2nc3sc(CCNC(=O)C(=O)Nc4ccc(C)c(F)c4)c(C)n3n2)cc1	.	/	/	/	.	.
O=[N+]([O-])c1cccnc1N/N=C/c1ccccc1O	.	.	89.1µM	.	/	.
Oc1ccccc1/C=N/Nc1nccnc1Cl	.[12.7 µM]	25.1µM	.	.	?	.
Cc1c(O)ccc(/C=N/Nc2ncccc2[N+](=O)[O-])c1O	/	/	/	.	/	.
Oc1ccc(/C=N/Nc2nccnc2Cl)c(O)c1	.	?	?	.	?	.
CCOC(=O)c1ccc(NC(=O)Cn2c(-c3nonc3N)nc3ccccc32)cc1	.	.	.	.	/	.
COc1ccccc1N/N=C/c1c(CO)cnc(C)c1O	14.1µM	?	?	.	.	.
COc1ccccc1NS(=O)(=O)c1cccc(C(=O)N/N=C/c2c(CO)cnc(C)c2O)c1	.[12.7 µM]	/	/	/	/	/
Cc1ncc(CO)c(/C=N/NC(=O)c2ccc(O)cc2)c1O	.	.	.	.	?	.
Cc1ncc(CO)c(/C=N/NC(=S)Nc2ccc(Cl)c(Cl)c2)c1O	/	?	?	50.1µM	.	.
Cc1ncc(CO)c(/C=N/NC(=S)Nc2cccc(Cl)c2)c1O	?	?	?	50.1µM	?	.
COc1cccc(CNC(=O)Cn2nc(N3CCN(c4ccccc4OC)CC3)ccc2=O)c1	.	/	/	/	/	.
CCc1cccc(CC)c1NC(=O)C(Cc1ccccc1)NS(=O)(=O)c1cccc2nsnc12 (stereo unspecified)	?	/	/	/	/	.
Cc1coc2c1C(=O)C(=O)c1c-2ccc2c(C)cccc12	?	.	/	.	/	.
Cc1coc2c1C(=O)C(=O)c1c-2ccc2c1CCCC2(C)C	2.24µM	?	20µM	.	?	.
CC(C)(C)CC(=O)Nc1nn[nH]n1	?	.	.	.	.	.
CCC12CC3CC(C1)CC(C(=O)Nc1nn[nH]n1)(C3)C2	20µM	.	.	.	.	.
CC12CC3CC(C)(C1)CC(C(=O)Nc1nn[nH]n1)(C3)C2	35.5µM	.	.	.	.	.
CC12CC3CC(C)(C1)CC(C(=O)Nc1nncs1)(C3)C2	.	/	/	.	/	.
CC12CC3(C)CC(C)(C1)CC(C(=O)Nc1nn[nH]n1)(C2)C3	35.5µM	.	.	.	.	.
CCC12CC3CC(C1)CC(C(=O)NNC(N)=O)(C3)C2	/	.	/	.	/	.
CC(=O)Nc1ccc(NC(=O)C/C(C)=N/NC(=O)C(=O)N2CCCC2)cc1	35.5µM	.	.	.	.	.
C/C=C/C(=O)[C@@H](C)[C@@H](/C=C/C[Si](C)(C)C)C(C)C	/	/	/	.	/	/
CCOC(=O)CSC1=C(C#N)C(=O)NC(c2ccc(OC)cc2)S1 (stereo unspecified)	?	?	20µM	44.7µM	.	.
CCOC(=O)CSC1=C(C#N)C(=O)NC(c2ccc(OC)c(OC)c2)S1 (stereo unspecified)	?	?	?	39.8µM	.	.
COc1ccc(NC(=O)c2cc(S(=O)(=O)N(Cc3ccccc3)c3ccccc3)ccc2Cl)cn1	.	.	?	.	?	.
Fc1ccc(C2CCCN2Cc2nc(-c3cnccn3)no2)cc1 (stereo unspecified)	.	.	28.2µM	.	/	.
O=C(O)c1[nH]c(=O)[nH]c(=O)c1CN1CCCCC1	/	/	.[13.5 µM]	/	/	/
